Protein sequences, listed by entry. Tags and fused reporters are not part of them.
UniProt O14842, whole entry: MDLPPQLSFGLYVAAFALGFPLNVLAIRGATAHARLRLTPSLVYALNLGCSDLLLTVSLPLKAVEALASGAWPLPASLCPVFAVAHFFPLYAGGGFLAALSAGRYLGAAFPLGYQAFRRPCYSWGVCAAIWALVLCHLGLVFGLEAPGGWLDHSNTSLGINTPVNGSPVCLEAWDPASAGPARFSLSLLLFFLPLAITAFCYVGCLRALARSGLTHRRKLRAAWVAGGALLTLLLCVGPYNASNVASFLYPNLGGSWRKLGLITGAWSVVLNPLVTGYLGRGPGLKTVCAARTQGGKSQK

In US10000454B2, “Antidiabetic tricyclic compounds” (Merck Sharp & Dohme Corp., priority 2014, dated 2018):

Experiments:
[1] = target: T1, Human GPR40 (Homo sapiens, UniProt O14842); test: FLIPR assay, agonist-induced calcium mobilization; details: read-out: Human GPR40, FLIPR, EC50, GPR40/CHO NFAT BLA cells
Protocol: (§1) Human and mouse GPR40 stable cell-lines were generated in CHO cells stably expressing NFAT BLA (Beta-lactamase). A human GPR40 stable cell-line was generated in HER cells stably expressing the aequorin expressing reporter. The expression plasmids were transfected using lipofectamine (Life Technologies) following manufacturer's instructions. Stable cell-lines were generated following drug selection.
FLIPR (Fluorimetric Imaging Plate Reader, Molecular Devices) assays were performed to measure agonist-induced calcium mobilization of the stable clones. For the FLIPR assay, one day before assay, GPR40/CHO NFAT BLA cells were seeded into black-wall-clear-bottom 384-well plates (Costar) at 1.4×10e4 cells/20 μL medium/well. The cells were incubated with 20 μl/well of the assay buffer (HMS, 0.1% BSA, 20 mM HEPES, 2.5 mM probenecid, pH 7.4) containing 8 μM fluo-4, AM, 0.08% pluronic acid at room temperature for 100 minutes. Fluorescence output was measured using FLIPR. Compounds were dissolved in DMSO and diluted to desired concentrations with assay buffer. 13.3 μL/well of compound solution was added.

[2] = target: T1, Human GPR40; test: Inositol Phosphate Turnover (IP1) Assay; details: read-out: Human GPR40 IP1, EC50; HEK cells stably expressing human GPR40, CisBio IP-One kit
Protocol: as §1
The assay is performed in 384-well format. HEK cells stably expressing human GPR40 are plated at 15,000 cells per well in growth medium (DMEM/10% fetal calf serum). Cell plates are then incubated 16 hours at 37 degrees in a 5% CO2 incubator.
Measurement of Inositol Phosphate Turnover (IP1) is performed using the CisBio IP-One kit (Part number 62IPAPEB). After the 16 hour incubation, the cells are washed with HEPES buffer and 10 ul of stimulation buffer (prepared as described in the kit) is added to each well. In a separate plate, compounds are diluted in DMSO (400-fold over the final concentration in the assay well) and 25 nl is acoustically transferred to the appropriate well in the assay cell plate. The plates are then incubated for 60 minutes at 37 degrees. […] The plates are then read in a Perkin Elmer EnVision or equivalent reader able to measure FRET. […]

`CC1(C)CC(c2ccccc2C(F)(F)F)c2cc(COc3ccc4c(c3)C[C@H]3[C@H](C(=O)O)[C@@H]43)ccc21` (some centres unmarked) was tested, and the EC50 [1] was 19.4 nM and the EC50 [2] was 70.4 nM.
